Assay results from ChEMBL document CHEMBL4602618, “Novel compounds that reverse the disease phenotype in Type 2 Gaucher disease patient-derived cells” (Bioorg Med Chem Lett, 2020).

Organism: Homo sapiens
Assay: Potency index, ratio of EC50 of tamoxifen to EC50 of compound for chaperone activity at GCase L444P GBA gene mutant in human fibroblasts derived from Gaucher patient assessed as increase in GPN-induced reduction of calcium release using Fluo-8AM based fluorescence assay

Ratio EC50: 3
SMILES: CC(C)CCC(C(=O)c1ccc(OCCN(C)C)cc1)c1ccccc1 (stereo unspecified)
